PubChem BioAssay AID435022 (Sanford-Burnham Center for Chemical Genomics, 2010)
The entries are a selection whose mix differs from that of the whole data set. Active and inactive are the calls of the source. Cut-off read from the data, not from the text of the source: active = inhibition above about 35%; inactive = the rest.

experiment: lowers stimulated NF-kB luciferase signal in 697 B cells – cell-based, luminescence, uHTS, B-cell NF-kB inhibitor project, primary screen (AID 435022); conditions: 697 B-cell NF-kB luciferase reporter, PMA/ionomycin, 16 h; at 4 µM; active compounds read high

Compound	inhibition
CC(C)(C)OC(=O)N1CCC(N(C(=O)c2ccccc2)c2ccc(F)cc2)CC1	inactive: -4.23%
COc1ccc(C(=O)NCC2(N3CCCCC3)CCCCC2)c(OC)c1OC	inactive: -15.9%
COc1ccc(C(=O)NCC2(N3CCCCC3)CCCCC2)cc1	inactive: 5.93%
O=C(NCC1(N2CCCCC2)CCCCC1)c1cccs1	inactive: 1.83%
O=C(NCC1(N2CCCCC2)CCCCC1)c1ccc(=O)[nH]c1	inactive: 11.4%
CSc1ccccc1C(=O)NCC1(N2CCCCC2)CCCCC1	inactive: -30.6%
Cc1cc(C)cc(N(C(=O)c2ccccc2)C2CCN(C(=O)OC(C)(C)C)CC2)c1	inactive: -4.84%
O=C(NCC1(N2CCCCC2)CCCCC1)c1ccc(Cl)nc1	inactive: 12.4%
O=C(NCC1(N2CCOCC2)CCCCC1)c1cc2ccccc2o1	inactive: 5.41%
COc1ccc(Cl)cc1C(=O)NCC1(N2CCOCC2)CCCCC1	inactive: 5.48%
O=C(NCC1(N2CCCCC2)CCCCC1)c1ccc(Cl)s1	inactive: 19.3%
N#CC1(Nc2ccccc2)CCN(Cc2ccccc2)CC1	inactive: 10.9%
O=C(OC1CN2CCC1CC2)C1c2ccccc2Oc2ccccc21 (configuration not stated)	inactive: -7.25%
CCOC(=O)N1CCC(Nc2ccc(OC)cc2)CC1	inactive: -13.5%
CCOc1ccc(C)cc1CN(CCCl)CCCl	inactive: -18.7%
COc1ccc(NC2CCN(CCc3ccccc3)CC2)c(OC)c1	inactive: 10.4%
CCOC(=O)N1CCC(Nc2ccc(F)cc2)CC1	inactive: -8.91%
CCCCOc1ccc(C(=O)NCC2(N3CCOCC3)CCCCC2)cc1	inactive: -58.6%
O=C(NCC1(N2CCCCC2)CCCCC1)c1ccc(F)cc1	inactive: 7.77%
Cc1ccc(OCC(C)C)c(CN(CCCl)CCCl)c1	inactive: -3.68%
CCOC(=O)N1CCC(Nc2cccc(C)c2)CC1	inactive: -6.22%
O=C(NCC1(N2CCCCC2)CCCCC1)c1ccc(OC(F)F)cc1	inactive: -8.17%
N#CC1(Nc2ccccc2)CCN(CCc2ccccc2)CC1	inactive: 18.7%

Compound	inhibition
CCN1CCC(Nc2ccc(Cl)cc2)CC1	inactive: -4.79%
O=C(NCC1(N2CCCCC2)CCCCC1)c1cccc([N+](=O)[O-])c1	inactive: 4.77%
CSc1ccc(C(=O)NCC2(N3CCOCC3)CCCCC2)cc1	inactive: -17.9%
O=C(NCC1(N2CCCCC2)CCCCC1)c1cccc(C(F)(F)F)c1	inactive: -0.643%
COc1cc(C(=O)NCC2(N3CCCCC3)CCCCC2)ccc1OC(F)F	inactive: 12.5%
O=C(NCC1(N2CCOCC2)CCCCC1)c1cc(=O)[nH]c2ccccc12	inactive: -3.53%
CN1CCN(CCOC(=O)C(O)(c2ccccc2)c2ccccc2)CC1	inactive: -4.15%
CC(C)c1ccc(C(=O)NCC2(N3CCOCC3)CCCCC2)cc1	inactive: -38.3%
COc1ccc(NC2CCN(C(=O)OC(C)(C)C)CC2)cc1	inactive: -6.68%
CC(C)c1ccc(NC2CCN(C(=O)OC(C)(C)C)CC2)cc1	inactive: -59.6%
CN(C)c1cccc(C(=O)NCC2(N3CCCCC3)CCCCC2)c1	inactive: -1.11%
COc1ccc(CN(CCCl)CCCl)cc1Cl	inactive: 13.1%
O=C(NCC1(N2CCOCC2)CCCCC1)c1cc(F)c(F)cc1Cl	inactive: -0.658%
COc1cc(OC)c(C(=O)NCC2(N(C)C)CCCCC2)cc1OC	inactive: 4%
CN1CCC(Nc2cccc(F)c2)CC1	inactive: 14%
O=C(NCC1(N2CCCCC2)CCCCC1)c1cncc(Br)c1	inactive: 4.24%
COc1cc(C(=O)NCC2(N3CCOCC3)CCCCC2)cc(OC)c1C	inactive: -12.7%
O=C(NCC1(N2CCOCC2)CCCCC1)c1cc(Br)ccc1Cl	inactive: -5.08%
COc1ccc(C(=O)NCC2(N3CCOCC3)CCCCC2)cc1OC	inactive: 12.2%
CCOC(=O)N1CCC(Nc2ccc(C)cc2)CC1	inactive: -6.91%
N/C(=N\O)c1c(N)no[n+]1[O-]	inactive: -11.1%
CCc1cc(C(=O)NCC2(N3CCCCC3)CCCCC2)sc1C	inactive: 17.4%
O=C(OC1CN2CCC1CC2)C1c2ccccc2C=Cc2ccccc21 (configuration not stated)	inactive: 7.16%

Compound	inhibition
N#Cc1ccc(C(=O)NCC2(N3CCCCC3)CCCCC2)cc1	inactive: 13.7%
CC(C)(C)OC(=O)N1CCC(N(C(=O)c2ccccc2)c2ccc(Cl)cc2)CC1	inactive: 1.94%
CN(C)C1(CNC(=O)c2cccc(C#N)c2)CCCCC1	inactive: -8.5%
CCCN1CCC(Nc2cc(OC)cc(OC)c2)CC1	inactive: -6.82%
c1ccc(CN2CCC(Nc3ccccc3)CC2)cc1	inactive: 5.76%
COc1cc(OC)cc(C(=O)NCC2(N3CCCCC3)CCCCC2)c1	inactive: 13.3%
Fc1ccccc1NC1CCN(Cc2ccccc2)CC1	inactive: 4.14%
Cc1ccc(C(=O)NCC2(N3CCCCC3)CCCCC2)o1	inactive: -6.12%
CCN1CCC(Nc2cccc(F)c2)CC1	inactive: 26.3%
CN(C)c1ccc(C(=O)NCC2(N3CCCCC3)CCCCC2)cc1	inactive: 13.4%
O=C(NCC1(N2CCCCC2)CCCCC1)c1ccco1	inactive: 12.8%
CN1CCC(Nc2ccc(F)c(Cl)c2)CC1	inactive: -3.18%
CCOc1ncccc1C(=O)NCC1(N2CCOCC2)CCCCC1	inactive: 2.46%
O=C(O)C1(Nc2ccccc2)CCN(Cc2ccccc2)CC1	inactive: -12.8%
CC(C)(C)OC(=O)N1CCC(Nc2ccccc2)CC1	inactive: 5.1%
CCCOc1ccc(C(=O)NCC2(N(C)C)CCCCC2)cc1	inactive: 18.2%
COc1cc(OC)cc(C(=O)NCC2(N3CCOCC3)CCCCC2)c1	inactive: -8.64%
COc1cccc(C(=O)N(c2cc(C)cc(C)c2)C2CCN(C(=O)OC(C)(C)C)CC2)c1	inactive: -25.3%
CCC(CO)(C(=O)OC1CN2CCC1CC2)c1ccccc1 (configuration not stated)	inactive: 22.8%
CN1CCC(Nc2ccc(Cl)cc2)CC1	inactive: 12.9%
CCCOc1ccc(C)cc1CN(CCCl)CCCl	inactive: -9.77%
